Article PMC6478789, “A chemical toolbox for the study of bromodomains and epigenetic signaling” (Nature Communications, 2019)
Read-outs that look alike come from different tables or passages of the source.

Sequences of proteins named here, by UniProt entry; tags and fusion partners are left off. Residues count along the entry.
UniProt Q9NPI1, 131-235 limits assumed: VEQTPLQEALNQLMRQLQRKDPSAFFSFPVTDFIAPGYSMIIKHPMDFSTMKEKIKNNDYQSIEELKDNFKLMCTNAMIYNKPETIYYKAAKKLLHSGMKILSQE
UniProt P25440, 74-180 limits assumed: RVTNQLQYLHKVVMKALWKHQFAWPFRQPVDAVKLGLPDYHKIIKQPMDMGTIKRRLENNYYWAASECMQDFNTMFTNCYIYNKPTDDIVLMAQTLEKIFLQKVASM
UniProt P25440, 71-455 limits assumed: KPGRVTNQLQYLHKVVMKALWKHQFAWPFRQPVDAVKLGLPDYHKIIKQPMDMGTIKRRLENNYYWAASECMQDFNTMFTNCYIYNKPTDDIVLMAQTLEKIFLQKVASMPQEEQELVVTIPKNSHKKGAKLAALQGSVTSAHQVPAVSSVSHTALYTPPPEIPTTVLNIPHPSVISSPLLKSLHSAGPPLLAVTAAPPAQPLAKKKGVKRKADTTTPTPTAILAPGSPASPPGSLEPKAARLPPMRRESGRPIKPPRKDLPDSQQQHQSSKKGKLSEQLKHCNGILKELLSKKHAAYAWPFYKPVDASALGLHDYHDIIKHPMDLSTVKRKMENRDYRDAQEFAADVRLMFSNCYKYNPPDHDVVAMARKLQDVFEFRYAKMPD
UniProt P25440, 344-453 limits assumed: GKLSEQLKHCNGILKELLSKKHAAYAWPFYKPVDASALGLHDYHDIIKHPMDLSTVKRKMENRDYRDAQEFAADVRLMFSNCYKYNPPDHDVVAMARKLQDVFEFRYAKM
UniProt P07332, 561-822 limits assumed, species assumed: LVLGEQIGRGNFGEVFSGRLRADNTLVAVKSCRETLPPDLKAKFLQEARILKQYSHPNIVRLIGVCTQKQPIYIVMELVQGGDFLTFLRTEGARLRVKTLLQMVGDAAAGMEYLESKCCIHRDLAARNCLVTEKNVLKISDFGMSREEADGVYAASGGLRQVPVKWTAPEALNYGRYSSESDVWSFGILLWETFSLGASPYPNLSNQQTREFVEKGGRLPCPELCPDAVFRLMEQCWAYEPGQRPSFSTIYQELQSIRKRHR
UniProt P55201, 1085-1168 limits assumed, species assumed: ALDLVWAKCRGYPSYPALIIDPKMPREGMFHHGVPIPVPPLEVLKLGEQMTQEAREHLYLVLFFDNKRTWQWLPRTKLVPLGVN
UniProt Q13188, 27-278 limits assumed: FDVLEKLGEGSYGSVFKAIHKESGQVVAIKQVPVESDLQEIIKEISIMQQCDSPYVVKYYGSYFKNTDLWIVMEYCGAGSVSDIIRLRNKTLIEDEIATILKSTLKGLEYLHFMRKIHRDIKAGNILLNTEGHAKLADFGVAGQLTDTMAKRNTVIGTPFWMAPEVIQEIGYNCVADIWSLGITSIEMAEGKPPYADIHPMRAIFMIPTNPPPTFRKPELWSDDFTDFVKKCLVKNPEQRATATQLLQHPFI
UniProt P29317, 613-875 limits assumed, species assumed: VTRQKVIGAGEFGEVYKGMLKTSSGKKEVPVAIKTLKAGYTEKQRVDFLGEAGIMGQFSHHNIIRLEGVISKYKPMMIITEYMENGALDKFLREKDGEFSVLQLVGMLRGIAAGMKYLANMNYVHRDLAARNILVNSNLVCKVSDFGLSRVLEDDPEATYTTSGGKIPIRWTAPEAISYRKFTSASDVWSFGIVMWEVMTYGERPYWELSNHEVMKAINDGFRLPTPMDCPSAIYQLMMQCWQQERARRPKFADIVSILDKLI
UniProt O14936, 12-276 limits assumed: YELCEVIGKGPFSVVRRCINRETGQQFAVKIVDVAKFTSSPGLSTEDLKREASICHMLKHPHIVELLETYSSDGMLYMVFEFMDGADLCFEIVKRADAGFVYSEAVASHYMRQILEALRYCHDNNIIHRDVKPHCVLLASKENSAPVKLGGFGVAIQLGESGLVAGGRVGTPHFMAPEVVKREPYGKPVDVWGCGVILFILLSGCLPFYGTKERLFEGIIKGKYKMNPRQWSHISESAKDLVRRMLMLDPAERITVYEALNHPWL
UniProt O94804, 36-294 limits assumed, species assumed: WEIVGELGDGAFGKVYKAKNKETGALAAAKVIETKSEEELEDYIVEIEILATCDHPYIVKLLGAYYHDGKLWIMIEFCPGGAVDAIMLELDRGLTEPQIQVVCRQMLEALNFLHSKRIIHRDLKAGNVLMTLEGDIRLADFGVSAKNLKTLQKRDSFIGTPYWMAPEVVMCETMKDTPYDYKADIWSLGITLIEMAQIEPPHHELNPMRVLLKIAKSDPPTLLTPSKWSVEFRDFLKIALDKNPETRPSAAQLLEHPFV
UniProt Q9H7E2, 555-615 limits assumed, species assumed: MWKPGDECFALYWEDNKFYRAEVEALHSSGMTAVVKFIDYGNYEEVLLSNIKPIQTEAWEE
UniProt Q8TF76, 484-798 limits assumed, species assumed: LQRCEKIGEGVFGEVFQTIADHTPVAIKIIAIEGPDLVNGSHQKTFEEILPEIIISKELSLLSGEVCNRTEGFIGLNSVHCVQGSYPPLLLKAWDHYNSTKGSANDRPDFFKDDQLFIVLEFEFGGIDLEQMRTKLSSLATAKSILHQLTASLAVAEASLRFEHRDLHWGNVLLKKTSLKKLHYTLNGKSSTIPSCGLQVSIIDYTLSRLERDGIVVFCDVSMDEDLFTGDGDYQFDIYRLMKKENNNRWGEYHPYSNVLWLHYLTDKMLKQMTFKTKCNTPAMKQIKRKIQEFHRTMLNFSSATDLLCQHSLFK
UniProt P48730, 9-277 limits assumed, species assumed: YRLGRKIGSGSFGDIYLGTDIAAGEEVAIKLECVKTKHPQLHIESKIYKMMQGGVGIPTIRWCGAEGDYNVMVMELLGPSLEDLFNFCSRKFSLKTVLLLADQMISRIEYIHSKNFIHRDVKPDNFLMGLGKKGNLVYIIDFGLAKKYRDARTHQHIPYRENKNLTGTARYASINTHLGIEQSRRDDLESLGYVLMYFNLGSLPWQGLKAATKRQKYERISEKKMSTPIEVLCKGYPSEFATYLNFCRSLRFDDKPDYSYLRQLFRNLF
UniProt O75530, whole entry, species assumed: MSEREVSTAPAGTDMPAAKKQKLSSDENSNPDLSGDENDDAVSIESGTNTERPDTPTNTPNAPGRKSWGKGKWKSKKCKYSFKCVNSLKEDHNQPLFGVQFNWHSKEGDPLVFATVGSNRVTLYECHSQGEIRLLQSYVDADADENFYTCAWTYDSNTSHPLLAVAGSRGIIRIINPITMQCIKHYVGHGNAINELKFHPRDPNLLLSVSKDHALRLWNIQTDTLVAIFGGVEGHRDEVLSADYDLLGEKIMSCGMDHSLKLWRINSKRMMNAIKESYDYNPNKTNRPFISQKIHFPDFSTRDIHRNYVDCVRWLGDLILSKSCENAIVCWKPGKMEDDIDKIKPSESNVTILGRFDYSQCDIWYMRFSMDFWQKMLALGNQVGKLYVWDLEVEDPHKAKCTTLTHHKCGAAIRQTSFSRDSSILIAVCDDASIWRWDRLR
UniProt P68400, 39-324 limits assumed, species assumed: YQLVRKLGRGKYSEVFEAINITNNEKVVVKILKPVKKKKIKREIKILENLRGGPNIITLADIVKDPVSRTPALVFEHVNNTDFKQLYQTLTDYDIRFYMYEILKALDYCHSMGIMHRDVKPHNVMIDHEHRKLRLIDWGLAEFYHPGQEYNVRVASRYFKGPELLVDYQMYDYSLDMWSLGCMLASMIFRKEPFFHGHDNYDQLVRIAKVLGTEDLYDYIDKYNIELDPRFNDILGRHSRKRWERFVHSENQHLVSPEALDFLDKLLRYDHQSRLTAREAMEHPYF
UniProt P33981, 525-791 limits assumed, species assumed: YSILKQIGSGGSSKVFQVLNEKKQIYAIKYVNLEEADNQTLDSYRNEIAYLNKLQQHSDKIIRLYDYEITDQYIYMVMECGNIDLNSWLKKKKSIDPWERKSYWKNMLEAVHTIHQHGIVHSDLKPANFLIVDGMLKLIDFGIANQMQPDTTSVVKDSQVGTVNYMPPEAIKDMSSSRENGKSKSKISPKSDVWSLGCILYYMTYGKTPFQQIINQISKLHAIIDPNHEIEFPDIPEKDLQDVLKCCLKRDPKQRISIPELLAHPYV
UniProt Q96NX5, 23-277 limits assumed, species assumed: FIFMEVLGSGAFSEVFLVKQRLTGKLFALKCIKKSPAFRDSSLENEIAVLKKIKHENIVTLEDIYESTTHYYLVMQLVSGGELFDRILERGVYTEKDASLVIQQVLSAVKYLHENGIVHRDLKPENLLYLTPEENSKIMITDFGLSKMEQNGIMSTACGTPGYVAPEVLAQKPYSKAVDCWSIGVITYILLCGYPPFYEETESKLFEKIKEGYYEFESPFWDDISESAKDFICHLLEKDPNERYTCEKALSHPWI
UniProt O43293, 13-275 limits assumed, species assumed: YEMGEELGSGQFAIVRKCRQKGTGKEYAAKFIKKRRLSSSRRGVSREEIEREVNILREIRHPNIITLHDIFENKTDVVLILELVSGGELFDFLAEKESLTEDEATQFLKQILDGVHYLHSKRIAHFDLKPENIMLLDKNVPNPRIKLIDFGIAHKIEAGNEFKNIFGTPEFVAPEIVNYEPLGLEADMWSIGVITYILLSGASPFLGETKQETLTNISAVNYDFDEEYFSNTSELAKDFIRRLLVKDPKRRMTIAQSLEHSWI
UniProt Q12866, 587-858 limits assumed, species assumed: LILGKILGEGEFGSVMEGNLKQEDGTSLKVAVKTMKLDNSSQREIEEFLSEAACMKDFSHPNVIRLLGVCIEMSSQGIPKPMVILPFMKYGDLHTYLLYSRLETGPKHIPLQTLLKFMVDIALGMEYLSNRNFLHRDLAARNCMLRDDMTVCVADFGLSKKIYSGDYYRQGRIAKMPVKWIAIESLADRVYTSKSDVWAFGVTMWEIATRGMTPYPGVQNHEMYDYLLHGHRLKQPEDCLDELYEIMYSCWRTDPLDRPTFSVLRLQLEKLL
UniProt P51813, 417-675 limits assumed, species assumed: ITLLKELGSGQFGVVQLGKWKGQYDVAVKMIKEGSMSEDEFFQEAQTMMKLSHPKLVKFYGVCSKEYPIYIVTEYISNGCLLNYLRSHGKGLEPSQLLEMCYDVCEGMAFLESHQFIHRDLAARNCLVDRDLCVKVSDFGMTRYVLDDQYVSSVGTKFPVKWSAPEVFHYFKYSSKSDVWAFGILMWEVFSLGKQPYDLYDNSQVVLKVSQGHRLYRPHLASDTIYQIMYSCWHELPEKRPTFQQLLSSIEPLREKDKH
UniProt Q96RR4, 165-446 limits assumed, species assumed: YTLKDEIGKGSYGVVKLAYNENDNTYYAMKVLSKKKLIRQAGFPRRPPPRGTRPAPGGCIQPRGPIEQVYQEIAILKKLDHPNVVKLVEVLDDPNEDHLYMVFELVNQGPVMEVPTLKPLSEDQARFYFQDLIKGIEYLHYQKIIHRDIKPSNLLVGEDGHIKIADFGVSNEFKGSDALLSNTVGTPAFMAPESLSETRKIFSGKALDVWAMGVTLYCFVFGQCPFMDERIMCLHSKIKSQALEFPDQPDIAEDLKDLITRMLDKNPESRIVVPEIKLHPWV
UniProt P28482, 25-313 limits assumed, species assumed: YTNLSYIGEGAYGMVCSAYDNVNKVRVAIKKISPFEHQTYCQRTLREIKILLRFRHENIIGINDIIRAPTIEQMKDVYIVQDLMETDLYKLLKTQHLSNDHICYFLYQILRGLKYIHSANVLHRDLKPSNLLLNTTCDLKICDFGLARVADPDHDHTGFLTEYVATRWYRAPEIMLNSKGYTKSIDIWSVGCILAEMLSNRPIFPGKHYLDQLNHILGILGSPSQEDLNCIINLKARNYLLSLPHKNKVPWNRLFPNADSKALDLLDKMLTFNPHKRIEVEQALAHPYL
UniProt P11309, 38-290 limits assumed, species assumed: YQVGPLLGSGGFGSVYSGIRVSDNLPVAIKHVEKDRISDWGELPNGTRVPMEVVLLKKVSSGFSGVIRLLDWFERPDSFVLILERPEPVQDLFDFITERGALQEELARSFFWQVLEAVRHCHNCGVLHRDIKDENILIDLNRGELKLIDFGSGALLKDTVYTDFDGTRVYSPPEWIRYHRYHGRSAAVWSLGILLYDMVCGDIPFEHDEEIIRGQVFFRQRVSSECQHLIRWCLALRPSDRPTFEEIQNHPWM
UniProt P00519, 242-493 limits assumed, species assumed: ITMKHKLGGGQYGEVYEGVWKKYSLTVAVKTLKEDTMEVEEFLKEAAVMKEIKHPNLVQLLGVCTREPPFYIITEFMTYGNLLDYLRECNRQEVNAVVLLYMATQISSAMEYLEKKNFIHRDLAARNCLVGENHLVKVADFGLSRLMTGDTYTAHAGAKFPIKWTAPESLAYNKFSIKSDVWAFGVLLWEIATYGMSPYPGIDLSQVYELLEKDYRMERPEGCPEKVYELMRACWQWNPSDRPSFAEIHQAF
UniProt P51114, 2-132 limits assumed, species assumed: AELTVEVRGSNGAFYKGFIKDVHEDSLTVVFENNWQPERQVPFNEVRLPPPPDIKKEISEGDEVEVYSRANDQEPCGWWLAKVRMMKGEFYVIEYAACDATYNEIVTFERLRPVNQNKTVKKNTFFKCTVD
UniProt Q7KZF4, 729-787 limits assumed, species assumed: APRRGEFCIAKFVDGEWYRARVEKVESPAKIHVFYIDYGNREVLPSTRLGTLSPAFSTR
UniProt P34947, 186-448 limits assumed, species assumed: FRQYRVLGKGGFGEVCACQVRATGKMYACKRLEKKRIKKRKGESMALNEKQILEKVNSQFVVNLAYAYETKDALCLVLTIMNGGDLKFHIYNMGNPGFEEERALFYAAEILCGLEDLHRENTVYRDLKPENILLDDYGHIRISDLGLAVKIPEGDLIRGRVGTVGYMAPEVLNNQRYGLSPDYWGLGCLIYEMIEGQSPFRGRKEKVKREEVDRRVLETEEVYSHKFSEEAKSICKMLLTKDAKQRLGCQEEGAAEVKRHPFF
UniProt P15735, 24-291 limits assumed: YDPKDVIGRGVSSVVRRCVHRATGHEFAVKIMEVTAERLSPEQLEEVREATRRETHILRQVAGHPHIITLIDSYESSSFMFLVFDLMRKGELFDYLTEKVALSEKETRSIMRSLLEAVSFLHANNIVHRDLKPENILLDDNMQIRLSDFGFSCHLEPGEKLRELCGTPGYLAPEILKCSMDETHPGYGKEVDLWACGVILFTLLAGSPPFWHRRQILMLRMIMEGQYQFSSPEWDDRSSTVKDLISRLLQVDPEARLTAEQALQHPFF

How the values were obtained:
[1] = system: BT-549 and MDA-MB436 cell lines; experiment: JQ1 dose-response with or without BAY-876; format: cell-based, human; conditions: with or without 3 μM BAY-876, 7 days
BRPF3 [2] = biological target: T1, BRPF3 (Homo sapiens, UniProt Q9ULD4); experiment: BROMOscan ligand-binding assay
BRD7 = BRD7 (Homo sapiens, UniProt Q9NPI1); experiment: BROMOscan ligand-binding assay
BRD2(1) = BRD2(1) (Homo sapiens, UniProt P25440); experiment: BROMOscan ligand-binding assay
BRD2(1,2) = BRD2(1,2) (Homo sapiens, UniProt P25440); experiment: BROMOscan ligand-binding assay
BRD2(2) = BRD2(2) (Homo sapiens, UniProt P25440); experiment: BROMOscan ligand-binding assay
BRPF3 [3] = biological target: T1, BRPF3; parameters: purchased; method as in ref 11 (suppl.); conditions: ITC data; ref 11 (suppl.); cited from earlier work
SMARCA4 = SMARCA4 (Homo sapiens, UniProt P51532); experiment: BROMOscan ligand-binding assay
FES = biological target: T2, FES (Homo sapiens, UniProt P07332); experiment: Temperature shift assay (protein kinases); format: binding; conditions: 10 μM probe; average of three measurements
T2 construct: Recombinant protein domains (bromodomain or kinases) at a concentration of 2 μM

UHRF1 = UHRF1 (Homo sapiens, UniProt Q96T88); experiment: Temperature shift assay (non-BRD reader domains); conditions: 10µM compound
BRPF1 = BRPF1 (Homo sapiens, UniProt P55201); experiment: Temperature shift assay (non-BRD reader domains); format: binding; conditions: 10µM compound
STK3 = biological target: T3, STK3 (Homo sapiens, UniProt Q13188); experiment: Temperature shift assay (protein kinases); format: binding; conditions: 10 μM probe; average of three measurements
T3 construct: Recombinant protein domains (bromodomain or kinases) at a concentration of 2 μM

AURKB = biological target: T4, AURKB (Homo sapiens, UniProt Q96GD4); experiment: Temperature shift assay (protein kinases); format: binding; conditions: 10 μM probe; average of three measurements
T4 construct: Recombinant protein domains (bromodomain or kinases) at a concentration of 2 μM

EPHA2 = biological target: T5, EPHA2 (Homo sapiens, UniProt P29317); experiment: Temperature shift assay (protein kinases); format: binding; conditions: 10 μM probe; average of three measurements
T5 construct: Recombinant protein domains (bromodomain or kinases) at a concentration of 2 μM

CASK = biological target: T6, CASK (Homo sapiens, UniProt O14936); experiment: Temperature shift assay (protein kinases); format: binding; conditions: 10 μM probe; average of three measurements
T6 construct: Recombinant protein domains (bromodomain or kinases) at a concentration of 2 μM

STK10 = biological target: T7, STK10 (Homo sapiens, UniProt O94804); experiment: Temperature shift assay (protein kinases); format: binding; conditions: 10 μM probe; average of three measurements
T7 construct: Recombinant protein domains (bromodomain or kinases) at a concentration of 2 μM

TDRD3 = TDRD3 (Homo sapiens, UniProt Q9H7E2); experiment: Temperature shift assay (non-BRD reader domains); conditions: 10µM compound
GSG2 = biological target: T8, GSG2 (Homo sapiens, UniProt Q8TF76); experiment: Temperature shift assay (protein kinases); format: binding; conditions: 10 μM probe; average of three measurements
T8 construct: Recombinant protein domains (bromodomain or kinases) at a concentration of 2 μM

CSNK1D = biological target: T9, CSNK1D (Homo sapiens, UniProt P48730); experiment: Temperature shift assay (protein kinases); format: binding; conditions: 10 μM probe; average of three measurements
T9 construct: Recombinant protein domains (bromodomain or kinases) at a concentration of 2 μM

MAPK8 = biological target: T10, MAPK8 (Homo sapiens, UniProt P45983); experiment: Temperature shift assay (protein kinases); format: binding; conditions: 10 μM probe; average of three measurements
T10 construct: Recombinant protein domains (bromodomain or kinases) at a concentration of 2 μM

EED = EED (Homo sapiens, UniProt O75530); experiment: Temperature shift assay (non-BRD reader domains); conditions: 10µM compound
BRPF3 [4] = biological target: BRPF3 (Homo sapiens, UniProt Q9ULD4); experiment: Temperature shift assay (non-BRD reader domains); conditions: 10µM compound
CK2A1 = biological target: T11, CK2A1 (Homo sapiens, UniProt P68400); experiment: Temperature shift assay (protein kinases); format: binding; conditions: 10 μM probe; average of three measurements
T11 construct: Recombinant protein domains (bromodomain or kinases) at a concentration of 2 μM

TTK = biological target: T12, TTK (Homo sapiens, UniProt P33981); experiment: Temperature shift assay (protein kinases); format: binding; conditions: 10 μM probe; average of three measurements
T12 construct: Recombinant protein domains (bromodomain or kinases) at a concentration of 2 μM

CAMK1G = biological target: T13, CAMK1G (Homo sapiens, UniProt Q96NX5); experiment: Temperature shift assay (protein kinases); format: binding; conditions: 10 μM probe; average of three measurements
T13 construct: Recombinant protein domains (bromodomain or kinases) at a concentration of 2 μM

DAPK3 = biological target: T14, DAPK3 (Homo sapiens, UniProt O43293); experiment: Temperature shift assay (protein kinases); format: binding; conditions: 10 μM probe; average of three measurements
T14 construct: Recombinant protein domains (bromodomain or kinases) at a concentration of 2 μM

PAK4 = biological target: T15, PAK4 (Homo sapiens, UniProt O96013); experiment: Temperature shift assay (protein kinases); format: binding; conditions: 10 μM probe; average of three measurements
T15 construct: Recombinant protein domains (bromodomain or kinases) at a concentration of 2 μM

WDR5 = WDR5 (Homo sapiens, UniProt P61964); experiment: Temperature shift assay (non-BRD reader domains); conditions: 10µM compound
RPS6KA1 = experiment: Temperature shift assay (protein kinases); format: binding; conditions: 10 μM probe; average of three measurements
MERTK = biological target: T16, MERTK (Homo sapiens, UniProt Q12866); experiment: Temperature shift assay (protein kinases); format: binding; conditions: 10 μM probe; average of three measurements
T16 construct: Recombinant protein domains (bromodomain or kinases) at a concentration of 2 μM

BMX = biological target: T17, BMX (Homo sapiens, UniProt P51813); experiment: Temperature shift assay (protein kinases); format: binding; conditions: 10 μM probe; average of three measurements
T17 construct: Recombinant protein domains (bromodomain or kinases) at a concentration of 2 μM

CAMKK2 = biological target: T18, CAMKK2 (Homo sapiens, UniProt Q96RR4); experiment: Temperature shift assay (protein kinases); format: binding; conditions: 10 μM probe; average of three measurements
T18 construct: Recombinant protein domains (bromodomain or kinases) at a concentration of 2 μM

MAPK1 = biological target: T19, MAPK1 (Homo sapiens, UniProt P28482); experiment: Temperature shift assay (protein kinases); format: binding; conditions: 10 μM probe; average of three measurements
T19 construct: Recombinant protein domains (bromodomain or kinases) at a concentration of 2 μM

PIM1 = biological target: T20, PIM1 (Homo sapiens, UniProt P11309); experiment: Temperature shift assay (protein kinases); format: binding; conditions: 10 μM probe; average of three measurements
T20 construct: Recombinant protein domains (bromodomain or kinases) at a concentration of 2 μM

RBBP1 = experiment: Temperature shift assay (non-BRD reader domains); format: binding; conditions: 10µM compound
DYRK1A = biological target: T21, DYRK1A (Homo sapiens, UniProt Q13627); experiment: Temperature shift assay (protein kinases); format: binding; conditions: 10 μM probe; average of three measurements
T21 construct: Recombinant protein domains (bromodomain or kinases) at a concentration of 2 μM

ABL1 = biological target: T22, ABL1 (Homo sapiens, UniProt P00519); experiment: Temperature shift assay (protein kinases); format: binding; conditions: 10 μM probe; average of three measurements
T22 construct: Recombinant protein domains (bromodomain or kinases) at a concentration of 2 μM

FXR1 = FXR1 (Homo sapiens, UniProt P51114); experiment: Temperature shift assay (non-BRD reader domains); conditions: 10µM compound
SND1 = SND1 (Homo sapiens, UniProt Q7KZF4); experiment: Temperature shift assay (non-BRD reader domains); conditions: 10µM compound
53BP1 = 53BP1 (Homo sapiens, UniProt Q12888); experiment: Temperature shift assay (non-BRD reader domains); conditions: 10µM compound
AAK1 = biological target: T23, AAK1 (Homo sapiens, UniProt Q2M2I8); experiment: Temperature shift assay (protein kinases); format: binding; conditions: 10 μM probe; average of three measurements
T23 construct: Recombinant protein domains (bromodomain or kinases) at a concentration of 2 μM

BRAF = biological target: T24, BRAF (Homo sapiens, UniProt P15056); experiment: Temperature shift assay (protein kinases); format: binding; conditions: 10 μM probe; average of three measurements
T24 construct: Recombinant protein domains (bromodomain or kinases) at a concentration of 2 μM

GPRK5 = biological target: T25, GPRK5 (Homo sapiens, UniProt P34947); experiment: Temperature shift assay (protein kinases); format: binding; conditions: 10 μM probe; average of three measurements
T25 construct: Recombinant protein domains (bromodomain or kinases) at a concentration of 2 μM

PHGK2 = biological target: T26, PHGK2 (Homo sapiens, UniProt P15735); experiment: Temperature shift assay (protein kinases); format: binding; conditions: 10 μM probe; average of three measurements
T26 construct: Recombinant protein domains (bromodomain or kinases) at a concentration of 2 μM

Compound: Cc1sc2c(c1C)C(c1ccc(Cl)cc1)=NC(CC(=O)OC(C)(C)C)c1nnc(C)n1-2 (stereo not shown) [JQ1]
- synergy with BAY-876 [1]: no significant effect

Compound: COc1cc(C#N)ccc1S(=O)(=O)Nc1ccc2c(c1)cc(C)c(=O)n2C [NI 57]
- Kd (BRPF3 [2]): 110 nM
- Kd (BRD7): 100 nM

Compound: CCOC(=O)Nc1cc(-c2ccc(C)c(NS(C)(=O)=O)c2)nn2c(C)nnc12 [Bromosporine]
- Kd (BRD2(1)): 220 nM
- Kd (BRD2(1,2)): 66.5 nM
- Kd (BRD2(2)): 84 nM

Compound: COc1cc(C#N)ccc1S(=O)(=O)Nc1ccc2c(c1)cc(C)c(=O)n2C [NIC57]
- Kd (BRPF3 [3]): 409 nM

Compound: COc1ccc(CCc2nc3cc(-c4c(C)noc4C)ccc3n2C[C@H](C)N2CCOCC2)cc1Cl [SGC-CBP30]
- Kd (SMARCA4; KD (BROMOscan), sheet prints no unit (nM)): > 30000 nM
- Kd (SMARCA4; KD, BROMOscan, SMARCA4): > 100000 nM

Compound: CCCS(=O)(=O)c1nc(NC2CC2)cc(-c2ccc3c(ccn3C3CC(C)(C)NC(C)(C)C3)c2)n1 [NVS-CECR2-1]
- Temperature shift (FES): -0.5 Kelvin
- Tm (C) 10µM, temperature shift (UHRF1): -0.3 Kelvin
- Tm (C) 10µM, temperature shift (BRPF1): -0.2 Kelvin
- Temperature shift (STK3): -0.1 Kelvin
- Temperature shift (AURKB): 0.3 Kelvin
- Temperature shift (EPHA2): 1.5 Kelvin
- Temperature shift (CASK): 0.1 Kelvin
- Temperature shift (STK10): -0.1 Kelvin
- Tm (C) 10µM, temperature shift (TDRD3): -3.3 Kelvin
- Temperature shift (GSG2): 0.2 Kelvin
- Temperature shift (CSNK1D): 0.4 Kelvin
- Temperature shift (MAPK8): -0.3 Kelvin
- Tm (C) 10µM, temperature shift (EED): -1.0 Kelvin
- Tm (C) 10µM, temperature shift (BRPF3 [4]): -0.3 Kelvin
- Temperature shift (CK2A1): -1.0 Kelvin
- Temperature shift (TTK): 0.4 Kelvin
- Temperature shift (CAMK1G): -0.4 Kelvin
- Temperature shift (DAPK3): 0.7 Kelvin
- Temperature shift (PAK4): -0.1 Kelvin
- Tm (C) 10µM, temperature shift (WDR5): -0.2 Kelvin
- Kd (SMARCA4; KD, BROMOscan, SMARCA4): > 30000 nM
- Temperature shift (RPS6KA1): 0.2 Kelvin
- Temperature shift (MERTK): 0.0 Kelvin
- Temperature shift (BMX): 0.0 Kelvin
- Temperature shift (CAMKK2): -0.3 Kelvin
- Temperature shift (MAPK1): 0.3 Kelvin
- Temperature shift (PIM1): 0.4 Kelvin
- Tm (C) 10µM, temperature shift (RBBP1): -1.0 Kelvin
- Temperature shift (DYRK1A): -0.3 Kelvin
- Temperature shift (ABL1): 0.0 Kelvin
- Tm (C) 10µM, temperature shift (FXR1): -5.1 Kelvin
- Tm (C) 10µM, temperature shift (SND1): -1.7 Kelvin
- Tm (C) 10µM, temperature shift (53BP1): -0.6 Kelvin
- Temperature shift (AAK1): -0.7 Kelvin
- Temperature shift (BRAF): -0.1 Kelvin
- Temperature shift (GPRK5): -0.1 Kelvin
- Temperature shift (PHGK2): -0.2 Kelvin
